Measured values reported in BindingDB's records for PubMed 9686407 (Sri International, 1998).

Sequences of proteins named here, by UniProt entry; tags and fusion partners are left off. A change or cut given only in a name is not applied to a line headed by its entry. A line that says so, or that is headed by a name, gives the form on record, which may keep a tag or linker.
UniProt P41145: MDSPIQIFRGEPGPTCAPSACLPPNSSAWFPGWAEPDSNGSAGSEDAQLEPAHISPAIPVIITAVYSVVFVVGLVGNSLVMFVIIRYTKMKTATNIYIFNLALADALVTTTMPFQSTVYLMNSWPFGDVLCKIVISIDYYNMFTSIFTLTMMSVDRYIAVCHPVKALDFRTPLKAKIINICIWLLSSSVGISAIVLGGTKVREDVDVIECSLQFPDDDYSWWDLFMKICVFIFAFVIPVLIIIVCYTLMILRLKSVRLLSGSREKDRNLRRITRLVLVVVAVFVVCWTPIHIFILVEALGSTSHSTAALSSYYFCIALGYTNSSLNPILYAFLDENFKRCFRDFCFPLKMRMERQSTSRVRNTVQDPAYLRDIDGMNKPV
UniProt P41143, whole entry: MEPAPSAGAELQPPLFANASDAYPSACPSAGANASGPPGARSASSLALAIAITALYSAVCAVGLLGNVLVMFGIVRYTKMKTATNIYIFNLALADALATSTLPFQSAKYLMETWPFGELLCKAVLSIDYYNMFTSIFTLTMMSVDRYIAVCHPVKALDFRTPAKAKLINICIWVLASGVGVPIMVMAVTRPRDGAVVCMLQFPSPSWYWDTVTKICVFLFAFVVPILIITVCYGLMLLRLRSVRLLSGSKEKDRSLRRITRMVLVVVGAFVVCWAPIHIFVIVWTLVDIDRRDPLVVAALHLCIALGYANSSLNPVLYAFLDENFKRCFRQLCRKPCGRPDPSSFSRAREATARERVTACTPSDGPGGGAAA
UniProt P21728, whole entry: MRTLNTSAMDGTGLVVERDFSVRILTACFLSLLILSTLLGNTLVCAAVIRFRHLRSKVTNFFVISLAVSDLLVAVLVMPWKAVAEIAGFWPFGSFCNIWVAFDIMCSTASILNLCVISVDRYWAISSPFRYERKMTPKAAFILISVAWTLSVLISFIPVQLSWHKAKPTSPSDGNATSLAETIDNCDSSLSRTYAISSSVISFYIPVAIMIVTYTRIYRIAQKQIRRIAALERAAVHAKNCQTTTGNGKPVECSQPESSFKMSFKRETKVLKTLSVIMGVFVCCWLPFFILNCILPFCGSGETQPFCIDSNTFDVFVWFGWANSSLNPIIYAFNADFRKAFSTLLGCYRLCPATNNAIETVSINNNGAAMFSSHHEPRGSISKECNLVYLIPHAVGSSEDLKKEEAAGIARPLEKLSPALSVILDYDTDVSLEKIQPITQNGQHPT
UniProt P35372, whole entry: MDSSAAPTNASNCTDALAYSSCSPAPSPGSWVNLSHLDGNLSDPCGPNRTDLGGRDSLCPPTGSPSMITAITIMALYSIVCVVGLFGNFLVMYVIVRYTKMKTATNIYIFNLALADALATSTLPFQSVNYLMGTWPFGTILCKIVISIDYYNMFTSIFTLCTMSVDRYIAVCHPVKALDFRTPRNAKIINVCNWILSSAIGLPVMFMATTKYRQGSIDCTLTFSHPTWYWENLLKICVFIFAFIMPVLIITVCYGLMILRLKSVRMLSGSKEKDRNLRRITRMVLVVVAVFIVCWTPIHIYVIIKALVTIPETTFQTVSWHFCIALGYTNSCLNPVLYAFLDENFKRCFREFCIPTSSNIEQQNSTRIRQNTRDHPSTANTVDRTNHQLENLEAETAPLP
UniProt P14842, whole entry: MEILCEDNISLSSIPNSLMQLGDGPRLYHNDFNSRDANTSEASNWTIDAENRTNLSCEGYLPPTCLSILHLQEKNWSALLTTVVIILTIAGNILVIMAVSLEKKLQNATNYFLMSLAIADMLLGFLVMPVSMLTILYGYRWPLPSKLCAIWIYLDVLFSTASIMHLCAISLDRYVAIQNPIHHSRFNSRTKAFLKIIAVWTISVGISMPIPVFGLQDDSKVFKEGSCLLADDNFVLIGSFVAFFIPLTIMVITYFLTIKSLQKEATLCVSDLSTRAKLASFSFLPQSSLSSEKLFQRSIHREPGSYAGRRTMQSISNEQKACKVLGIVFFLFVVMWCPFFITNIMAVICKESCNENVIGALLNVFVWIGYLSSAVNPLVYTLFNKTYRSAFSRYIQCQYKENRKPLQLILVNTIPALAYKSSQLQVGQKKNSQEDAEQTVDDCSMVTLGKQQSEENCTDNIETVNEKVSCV
UniProt P08908, whole entry: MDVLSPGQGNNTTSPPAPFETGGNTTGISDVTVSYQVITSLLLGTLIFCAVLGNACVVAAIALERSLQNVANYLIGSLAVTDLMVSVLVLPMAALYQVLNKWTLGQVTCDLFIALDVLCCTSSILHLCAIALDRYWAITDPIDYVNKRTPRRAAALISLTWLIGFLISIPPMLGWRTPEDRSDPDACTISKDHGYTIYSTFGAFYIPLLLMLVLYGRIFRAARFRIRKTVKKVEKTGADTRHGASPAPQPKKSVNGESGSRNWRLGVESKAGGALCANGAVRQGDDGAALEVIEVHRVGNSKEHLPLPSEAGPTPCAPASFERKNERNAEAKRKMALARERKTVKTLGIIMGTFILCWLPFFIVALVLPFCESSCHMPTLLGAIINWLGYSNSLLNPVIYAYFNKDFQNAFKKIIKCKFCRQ
UniProt P35462, as listed by the source: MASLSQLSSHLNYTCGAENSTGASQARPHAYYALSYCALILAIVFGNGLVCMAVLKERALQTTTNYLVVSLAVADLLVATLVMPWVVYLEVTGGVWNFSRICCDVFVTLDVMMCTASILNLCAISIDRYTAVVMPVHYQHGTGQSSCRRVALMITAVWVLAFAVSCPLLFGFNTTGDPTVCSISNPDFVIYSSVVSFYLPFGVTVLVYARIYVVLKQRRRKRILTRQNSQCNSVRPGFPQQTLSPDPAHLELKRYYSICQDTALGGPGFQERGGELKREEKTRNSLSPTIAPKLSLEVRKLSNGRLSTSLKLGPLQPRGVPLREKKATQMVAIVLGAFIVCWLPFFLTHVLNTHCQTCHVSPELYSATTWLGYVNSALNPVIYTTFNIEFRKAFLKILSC

What was measured:
[1] = target: T1, 5-hydroxytryptamine receptor 2C (Rattus norvegicus, UniProt P08909)
T1 sequence (P08909 whole entry): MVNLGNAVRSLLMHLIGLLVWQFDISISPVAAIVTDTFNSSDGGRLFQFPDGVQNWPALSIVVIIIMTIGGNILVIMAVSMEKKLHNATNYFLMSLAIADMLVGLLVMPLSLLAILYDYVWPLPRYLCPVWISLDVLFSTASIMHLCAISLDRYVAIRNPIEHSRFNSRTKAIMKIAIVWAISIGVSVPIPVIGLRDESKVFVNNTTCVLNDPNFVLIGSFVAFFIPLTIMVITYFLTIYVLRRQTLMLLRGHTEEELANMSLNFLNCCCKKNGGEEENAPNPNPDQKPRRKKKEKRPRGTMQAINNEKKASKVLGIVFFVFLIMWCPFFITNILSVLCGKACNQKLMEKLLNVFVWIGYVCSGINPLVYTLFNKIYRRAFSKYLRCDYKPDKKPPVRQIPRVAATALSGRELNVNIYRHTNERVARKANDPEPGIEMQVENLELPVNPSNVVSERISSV

[2] = target: Kappa-type opioid receptor (Homo sapiens, UniProt P41145)
[3] = target: Delta-type opioid receptor (Homo sapiens, UniProt P41143)
[4] = target: D(1A) dopamine receptor (Homo sapiens, UniProt P21728)
[5] = target: Mu-type opioid receptor (Homo sapiens, UniProt P35372)
[6] = target: 5-hydroxytryptamine receptor 2A (Rattus norvegicus, UniProt P14842)
[7] = target: 5-hydroxytryptamine receptor 1A (Homo sapiens, UniProt P08908)
[8] = target: D(3) dopamine receptor (Homo sapiens, UniProt P35462)

## O=C(CCCN1CCC2(CC1)C(=O)NCN2c1ccccc1)c1ccc(F)cc1 [8-[4-(4-fluorophenyl)-4-oxidanylidene-butyl]-1-phenyl-1,3,8-triazaspiro[4.5]decan-4-one]
[1]
  Ki: 4090 nM

## C=C1CCC2(O)C3Cc4ccc(O)c5c4C2(CCN3CC2CC2)C1O5 (stereo not given) [NSC_119501]
[2]
  Ki: 0.3 nM
[3]
  Ki: 7.3 nM

## CC[C@H](C)[C@H](NC(=O)[C@H](CCCN=C(N)N)NC(=O)[C@H](CCCN=C(N)N)NC(=O)[C@H](CC(C)C)NC(=O)[C@H](Cc1ccccc1)NC(=O)CNC(=O)CNC(=O)[C@@H](N)Cc1ccc(O)cc1)C(=O)O
[2]
  Ki: 0.2 nM
[3]
  Ki: 3.6 nM

## CN1Cc2c(N)cccc2[C@H](c2ccccc2)C1 [(+/-)-2-Methyl-4-phenyl-1,2,3,4-tetrahydro-isoquinolin-8-ylamine]
[1]
  Ki: > 10000 nM

## C[C@H](N)Cc1ccccc1 [beta-aminopropylbenzene]
[4]
  Ki: > 10000 nM

## CC(C)C[C@H](NC(=O)[C@H](Cc1ccccc1)NC(=O)CNC(=O)CNC(=O)[C@@H](N)Cc1ccc(O)cc1)C(=O)N[C@@H](CCCN=C(N)N)C(=O)N[C@@H](CCCN=C(N)N)C(=O)N[C@@H](CCC(N)=O)C(=O)N[C@@H](Cc1ccccc1)C(=O)N[C@@H](CCCCN)C(=O)N[C@H](C(=O)N[C@H](C(=O)N[C@H](C(=O)O)[C@@H](C)O)C(C)C)C(C)C [Dynorphin B (1-13)]
[2]
  Ki: 0.3 nM
[5]
  Ki: 3 nM

## NCCc1c[nH]c2ccc(O)cc12 [[3H]-5-HT]
[4]
  Ki: > 10000 nM

## CC(C)[C@H](NC(=O)[C@H](CCC(=O)O)NC(=O)[C@H](Cc1ccccc1)NC(=O)[C@@H](C)NC(=O)[C@@H](N)Cc1ccc(O)cc1)C(=O)N[C@H](C(=O)NCC(N)=O)C(C)C [Tyr-D-Ala-Phe-Glu-Val-Val-GlyNH2]
[5]
  Ki: 2080 nM

## CC(C)C[C@@H](NC(=O)[C@H](Cc1ccccc1)NC(=O)CNC(=O)[C@@H](C)NC(=O)[C@@H](N)Cc1ccc(O)cc1)C(=O)O [[D-Ala2-D-Leu5]enkephalin]
[2]
  Ki: > 10000 nM
[5]
  Ki: 1.8 nM

## CN(C)CCCN1c2ccccc2CCc2ccccc21
[6]
  Ki: 102 nM

## Oc1ccc2c3c1OC1c4[nH]c5ccccc5c4CC4(O)[C@H](C2)N(CC2CC2)CCC314 (stereo not given in full) [NALTRINDOLE]
[2]
  Ki: 10.1 nM

## CC[C@H](C)[C@H](NC(=O)[C@H](CCCNC(=N)N)NC(=O)[C@H](CCCNC(=N)N)NC(=O)[C@H](CC(C)C)NC(=O)[C@H](Cc1ccccc1)NC(=O)CNC(=O)CNC(=O)[C@@H](N)Cc1ccc(O)cc1)C(=O)N[C@@H](CCCNC(=N)N)C(=O)N1CCC[C@H]1C(=O)N[C@@H](CCCCN)C(=O)N[C@@H](CC(C)C)C(=O)N[C@@H](CCCCN)C(=O)O [Dynorphin A (1-13)]
[5]
  Ki: 4.5 nM

## OCCN1CCN(CC/C=C2/c3ccccc3Sc3ccc(C(F)(F)F)cc32)CC1 [(cis) 2-{4-[3-(2-Trifluoromethyl-thioxanthen-9-ylidene)-propyl]-piperazin-1-yl}-ethanol(Flupentixol)]
[4]
  Ki: 3 nM

## COC(=O)[C@@H]1[C@H]2C[C@H]3c4[nH]c5ccccc5c4CCN3C[C@@H]2CC[C@@H]1O [yohimbic acid methyl ester]
[7]
  Ki: 642 nM

## CN1CC[C@]23CCCC[C@H]2[C@H]1Cc1ccc(O)cc13 [CAS_5985-38-6]
[5]
  Ki: 0.3 nM

## CCN1CCCC1CNC(=O)c1cc(S(N)(=O)=O)ccc1OC (stereo not given) [N-[(1-ethylpyrrolidin-2-yl)methyl]-2-methoxy-5-sulfamoylbenzamide]
[8]
  Ki: 15 nM
